Patent publication US7347984B2, “Mammalian agmatinase inhibitory substance” (Jackson State University, priority 2004, dated 2008)

System: rat brain NMDA receptor
Assay: [3H]-MK801 binding assay in rat brain membranes
Conditions: Conc = 0.1 mM
Procedure: The binding of [^3H]-MK801 to NMDA (N-methyl-D-aspartate) receptors was measured in rat brain membranes as described in Renolds et al. (1990). Briefly, the membranes were incubated in HEPES buffer (pH 7.4) containing 0.4 nM [^3H]-MK801, 100 μM glutamate, and 30 μM glycine for 1 hour at 25° C. The binding was terminated by rapid filtration over glass fiber filters and radioactivity counted. Nonspecific binding was defined using 50 μM unlabelled MK801.
QSAR were studied by ab initio Hartree-Fock calculations with the Gaussian 94 computer program (Frisch et al. 1995). Based on the optimized geometry and van der Waals radius of each atom, calculations were performed with BlogP and BlogW programs (Bodor et al. 1989, 1992A, and 1992B) to determine molecular surfaces, volumes, ovalities, partition coefficients, and water solubilities. Linear combinations of these calculated descriptors were then fitted to the observed enzyme activities. The observed activities were the remaining percentage of rat agmatinase activity at 0.5 mM of each compound, the remaining percentage of rat NOS isozyme activity at 1 mM of each compound, and the remaining percentage of rat brain NMDA receptor binding at 0.1 mM of each compound.

Trans-4-Aminocyclohexyl guanidine
3H-MK801 Binding Remaining (%): 97.3%
